Test: Absorption and fluorescence spectroscopy (photophysical data)
Assay type: physicochemical
Settings: DMSO, 25 °C

O=[N+]([O-])c1ccc(Cl)c2nonc12
(λabs)max: 471 nm
ε (molar extinction coefficient): 369 M^–1 cm^–1
(λem)max (excitation at 480 nm): 557 nm

Source: PMC9887599, “Synthesis, Optical Properties, and Antiproliferative Evaluation of NBD-Triterpene Fluorescent Probes” (Journal of Natural Products, 2022)
